# Results published in paper PMC7310027, “PET imaging of soluble epoxide hydrolase in non-human primate brain with [^18F]FNDP” (EJNMMI Research, 2020).
# Tested on: soluble epoxide hydrolase (sEH)
# Assay: Baboon [^18F]FNDP PET, dose-escalation blocking with AR-9281 (Lassen plot, occupancy)
# Format: in vivo, baboon (Papio anubis)
# Settings: all brain regions, Baboon3
# Protocol: PET images were acquired using a CPS/CTI high-resolution research tomograph (HRRT), which has an axial resolution (FWHM) of 2.4 mm and in-plane resolution of 2.4–2.8 mm. […] These blocking studies were performed 27 to 43 days apart from each other to ensure full animal recovery. The animals had no food for 12 h prior to each PET study. Anesthesia was induced with intramuscular ketamine (7.5–10 mg/kg) and maintained with a continuous intravenous infusion of propofol at 0.3–0.4 mg/kg/min throughout the PET experiment. One venous catheter was inserted for the radioligand injection, and one arterial catheter was inserted to obtain arterial blood samples. Baboons were intubated to facilitate respiration, and circulatory volume was maintained by constant infusion of isotonic saline. Physiological vital signs including heart rate, blood pressure, electrocardiogram, and oxygen saturation were monitored continuously throughout the study.
# The animals were positioned in the PET scanner with the head immobilized using a thermoplastic mask. […] The 90-min dynamic PET acquisition was then started in three-dimensional list mode simultaneously with an intravenous bolus injection of [^18F]FNDP. […]
# Next, kinetic modeling was performed based on the TACs and the metabolite-corrected arterial plasma input functions. For brain uptake, the primary outcome measure was the regional brain distribution volume (VT) of [^18F]FNDP, defined as concentration of the radiotracer in regional tissue relative to that in blood at equilibrium. We evaluated which compartmental models (e.g., two-tissue-three-compartment (2TCM) or one-tissue-two-compartment (1TCM)) best described the [^18F]FNDP PET data, using statistical model selection criteria, such as the Akaike information criterion. For comparison, the Logan graphical method (t* = 30 min) was also used to compute regional VT, as well as generating voxel-wise parametric images of VT [31].
# For blocking studies, occupancy of sEH by FNDP was calculated using regional VT values as Eq 1 Occupancy=ΔVT/VTBaseline−VND, […]
compound,measurement,setting,value
"CC(=O)N1CCC(NC(=O)NC23CC4CC(CC(C4)C2)C3)CC1 [AR-9281, 1-(1-Acetyl-piperidin-4-yl)-3-adamantan-1-yl-urea, reference compound]",estimated occupancy of sEH,AR-9281 0.02 mg/kg s.c. 1 h before tracer,33.8 ± 3.8%
same,estimated occupancy of sEH,AR-9281 0.1 mg/kg s.c. 1 h before tracer,88.6 ± 1.3%
same,estimated occupancy of sEH,AR-9281 1 mg/kg s.c. 1 h before tracer,99.2 ± 1.1%
